Experimental data reported in patent publication US20250057836A1, “Compositions And Methods Targeting G12 Signaling For Bronchodilator Therapy” (Rutgers, The State University of New Jersey, priority 2017, published 2025).

System: SRE-luciferase reporter (luciferase expression upon Gα12 activation)
Experiment: SRE-luciferase assay in hTERT-immortalized HASMCs
Settings: control hTERT-immortalized HASMCs, carbachol 10 μM, 6 hours

C[N+](C)(C)CCOC(N)=O.[Cl-] [Carbachol, carbamoyl choline chloride]
luciferase expression on carbachol stimulation: 76±18 % fold
